Source: patent publication US9402842B2, “Synthesis and use of dual tyrosyl-DNA phosphodiesterase I (Tdp1)—topoisomerase I (Top1) inhibitors” (Purdue Research Foundation, priority 2012, dated 2016)

Amino acid sequences for entries named in this document (tags omitted).
UniProt P11387, whole entry: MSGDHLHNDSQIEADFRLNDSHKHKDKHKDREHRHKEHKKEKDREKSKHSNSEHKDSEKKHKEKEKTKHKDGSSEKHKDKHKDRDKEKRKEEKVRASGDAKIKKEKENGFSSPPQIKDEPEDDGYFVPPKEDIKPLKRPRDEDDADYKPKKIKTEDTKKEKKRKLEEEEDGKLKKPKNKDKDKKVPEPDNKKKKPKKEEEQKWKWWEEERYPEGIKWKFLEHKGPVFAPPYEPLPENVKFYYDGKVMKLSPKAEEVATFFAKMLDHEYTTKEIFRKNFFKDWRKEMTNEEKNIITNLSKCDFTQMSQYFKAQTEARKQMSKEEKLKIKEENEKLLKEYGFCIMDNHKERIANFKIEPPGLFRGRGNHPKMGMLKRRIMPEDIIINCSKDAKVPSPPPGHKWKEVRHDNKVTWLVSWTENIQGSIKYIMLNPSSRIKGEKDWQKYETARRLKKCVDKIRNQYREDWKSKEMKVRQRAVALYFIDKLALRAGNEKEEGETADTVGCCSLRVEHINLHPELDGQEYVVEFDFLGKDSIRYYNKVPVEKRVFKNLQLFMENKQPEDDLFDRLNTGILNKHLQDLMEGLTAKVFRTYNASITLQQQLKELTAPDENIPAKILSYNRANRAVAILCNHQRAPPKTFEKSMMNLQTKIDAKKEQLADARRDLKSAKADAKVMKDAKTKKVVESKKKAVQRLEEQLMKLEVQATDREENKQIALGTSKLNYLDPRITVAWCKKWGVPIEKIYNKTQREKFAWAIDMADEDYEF
UniProt Q9NUW8, whole entry: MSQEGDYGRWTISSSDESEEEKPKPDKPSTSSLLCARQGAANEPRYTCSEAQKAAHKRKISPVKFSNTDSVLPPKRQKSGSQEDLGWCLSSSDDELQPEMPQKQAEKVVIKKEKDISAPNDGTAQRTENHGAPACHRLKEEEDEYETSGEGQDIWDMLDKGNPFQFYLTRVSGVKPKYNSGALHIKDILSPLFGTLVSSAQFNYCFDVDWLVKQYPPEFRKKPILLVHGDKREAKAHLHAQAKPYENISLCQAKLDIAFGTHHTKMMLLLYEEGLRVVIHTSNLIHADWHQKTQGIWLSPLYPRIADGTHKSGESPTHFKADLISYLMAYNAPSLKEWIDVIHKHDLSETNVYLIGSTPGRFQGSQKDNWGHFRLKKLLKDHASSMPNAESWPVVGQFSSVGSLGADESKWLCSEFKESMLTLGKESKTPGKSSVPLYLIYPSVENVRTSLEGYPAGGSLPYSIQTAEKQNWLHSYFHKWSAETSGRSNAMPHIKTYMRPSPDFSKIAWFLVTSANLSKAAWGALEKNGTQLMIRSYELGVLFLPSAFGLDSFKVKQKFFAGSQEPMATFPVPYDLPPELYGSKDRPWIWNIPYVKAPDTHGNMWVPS

Experiments:
human recombinant Top1 = human recombinant Top1 (Homo sapiens (Human), UniProt P11387); assay: Topoisomerase I-mediated DNA cleavage reactions; details: tested form: HCl; for Top1, compound-induced DNA cleavage due to Top1 inhibition: semiquantitative, relative to 1 μM camptothecin
Tdp1 [1] = target: T1, Tdp1 (Homo sapiens (Human), UniProt Q9NUW8); assay: Gel-based assay measuring the inhibition of recombinant Tdp1; type: biochemical; details: tested form: HCl
Tdp1 [2] = target: T1, Tdp1; assay: Surface plasmon resonance binding to immobilized Tdp1; details: amine coupled Tdp1; tested form: HCl
Tdp1 [3] = target: T1, Tdp1; assay: FRET assay, mechanism of inhibition of Tdp1; type: biochemical; details: tested form: HCl

NCCCCCCCCCCCn1c2c(c3ccccc3c1=O)C(=O)c1ccccc1-2
Top1, compound-induced DNA cleavage due to Top1 inhibition (human recombinant Top1): + (between 20 and 50%, activity)

NCCCCCCCCCCn1c2c(c3ccccc3c1=O)C(=O)c1ccccc1-2
IC50 (Tdp1 [1]; read-out: IC50 (μM) recombinant Tdp1, recombinant Tdp1, gel-based assay): 14 µM | IC50 (Tdp1 [1]; read-out: Tdp1 (semiquantitative IC50 scale), determined by duplicate): > 111 µM | Tdp1 inhibitory activity (in words) (Tdp1 [1]; recombinant Tdp1): inactive | suppression of Top1-mediated DNA cleavage at high drug concentration (human recombinant Top1; high concentration of 100 μM): complete suppression | Top1, compound-induced DNA cleavage due to Top1 inhibition (human recombinant Top1): 0

NCCCCCCCCCCCCn1c2c(c3ccccc3c1=O)C(=O)c1ccccc1-2
Top1, compound-induced DNA cleavage due to Top1 inhibition (human recombinant Top1): 0/+

NCCCn1c2c(c3ccccc3c1=O)C(=O)c1ccccc1-2
binding to Tdp1 by surface plasmon resonance (in words) (Tdp1 [2]): direct binding | mechanism of inhibition (Tdp1 [3]): competitive inhibitor

Read-outs that look alike come from different tables or passages of the source.
